ChEMBL document CHEMBL5233252, “Single and dual target inhibitors based on Bcl-2: Promising anti-tumor agents for cancer therapy” (Eur J Med Chem, 2020)

Sequences of proteins named here, by UniProt entry; tags and fusion partners are left off.
UniProt Q07817, whole entry: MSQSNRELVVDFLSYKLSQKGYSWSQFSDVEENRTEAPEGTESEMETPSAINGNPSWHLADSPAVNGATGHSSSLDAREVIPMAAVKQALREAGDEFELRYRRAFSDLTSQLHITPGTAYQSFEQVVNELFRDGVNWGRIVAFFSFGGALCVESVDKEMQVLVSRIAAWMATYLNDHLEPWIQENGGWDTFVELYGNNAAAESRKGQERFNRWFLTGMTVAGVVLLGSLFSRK

Target: Bcl-2-like protein 1 (Homo sapiens, UniProt Q07817)
Experiment: Inhibition of BH3 peptide binding to Bcl-xL (unknown origin)

## Cc1cc2c(C(=O)NC[C@H](C)c3ccccc3)c(O)c(O)cc2c(O)c1-c1c(C)cc2c(C(=O)NC[C@H](C)c3ccccc3)c(O)c(O)cc2c1O [1,1',6,6',7,7'-HEXAHYDROXY-3,3'-DIMETHYL-N5-((R)-2-PHENYLPROPYL)-N5'-((R)-2-PHENYLPROPYL)-2,2'-BINAPHTHYL-5,5'-DICARBOXAMIDE (ATROPISOMERIC MIX)]
  IC50: 310 nM
